{"source": "paper PMC2386079", "about": "(Journal of Antimicrobial Chemotherapy, 2008)", "key": {"J774 macrophages": {"test_system": "J774 macrophages", "assay": "electron microscopy with morphometric analysis of lysosomal changes, macrophages", "type": "cell-based, mouse", "conditions": "24 h, 5, 25 or 90 mg/L"}, "rat embryo fibroblasts": {"test_system": "rat embryo fibroblasts", "assay": "electron microscopy with morphometric analysis of lysosomal changes, fibroblasts", "type": "cell-based", "conditions": "72 h, 5, 25 or 90 mg/L"}}}
{"substance": "Telavancin", "values": [{"measurement": "percentage of cell volume occupied by overloaded lysosomes (morphometry)", "setting": "J774 macrophages", "value": "concentration-dependent increase"}, {"measurement": "percentage of cell volume occupied by overloaded lysosomes (morphometry)", "setting": "rat embryo fibroblasts", "value": "concentration-dependent increase"}]}
